Source: patent US20220323325A1, “COMPOSITIONS COMPRISING DISSUBSTITUTE TEREPHTHALATES AND ALSO LIGHT PROECTION FILTER SUBSTANCES, DEODORANT AND/OR ANTIPERSPIRANT ACTIVE INGREDIENTS” (Evonik Operations GmbH, priority 2019, published 2022)

Test: Dissolution capacity of UV light protection filters
Type: physicochemical
Details: 22° C., percentage by weight
Source text: To test the dissolution capacity of UV light protection filters, three representative UVA or UVB light protection filters were selected representatively. These are: • Butyl Methoxydibenzoylmethane (BMDM) • Ethylhexyl Triazone (EHT) • Bis-Ethylhexyloxyphenol Methoxyphenyl Triazine (BEMT).
To determine the dissolution capacity for these three UV light protection filters, a certain amount (50 g) of one of the compounds according to the invention was initially charged in each case and temperature-controlled at 22° C. A percentage by weight of a UV light protection filter was added and stirred until this amount had fully and homogeneously dissolved. This procedure was repeated until the maximal soluble amount of the UV light protection filter had been exceeded. […] If the maximum concentration had been roughly determined in this manner, a fine determination of the concentration range was repeated around this maximum concentration using smaller weighed amounts of the UV light protection filter.

Substance: C12-15 Alkyl Benzoate
- dissolution capacity for BEMT (maximal soluble amount) (Bis-Ethylhexyloxyphenol Methoxyphenyl Triazine in the compound as solvent): 9%
- dissolution capacity for BMDM (maximal soluble amount) (Butyl Methoxydibenzoylmethane in the compound as solvent): 13%
- dissolution capacity for EHT (maximal soluble amount) (Ethylhexyl Triazone in the compound as solvent): 4%
